Rows were chosen to be rich in hits. Some 1.3% of all compounds tested hit in one or more screens of this group.
ARNT-TACC3 inh – ARNT/TACC3 interaction disruption; Q9Y6A5; AlphaScreen His-ARNT PAS-B/GST-TACC3 binding, luminescence; TACC3 fragment carries E629A point mutation; inhibition, % at 9.99 µM; actives 0.66% (n = 390,000);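 active = mean inhibition of replicates at least 50% and at least half of replicates each reaching 50%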;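 also: 0% = complete ARNT plus TACC3 wells and 100% = ARNT alone without TACC3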
E-sel inducer – induces E-selectin expression in human endothelial cells | P16581 | HUVEC E-selectin immunofluorescence imaging; normalized: neutral wells 0, TNF-alpha wells 100 | activation, % at 7.58 µM | actives 0.37% (n = 260,000);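 active = mean E-selectin-positive cell signal at least 10% of the positive control, reached in at least 60% of replicates, without over 20% cell loss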
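Test system: HUVEC | Signal: Immunofluorescence imaging | Read-out: Percent E-selectin-positive cells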
MLL AF4-AF9 inh – blocks AF4 peptide binding to human AF9 | P42568 | AlphaScreen, biotin-AF4 peptide binding to FLAG-AF9 | inhibition, % at 10 µM | actives 0.47% (n = 350,000) | AID 651704;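 active = every replicate reaching a set inhibition limit, whatever the replicate mean, cut at about 25% in these data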;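 also: 0% = plate neutral control median and 100% = total signal loss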
ERAP1 HTS inh – inhibitors of human ERAP1 aminopeptidase. inhibition, % at 10.7 µM. actives 0.15% (n = 340,000). Q9NZ08. recombinant ERAP1, Leu-AMC fluorescence, 60 min;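 active = mean replicate inhibition of at least 30%, or all replicates individually reaching that 30% level; inactive = mean below 30% and not every replicate reaching it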;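 also: 0% = neutral control wells and 100% = L-leucinethiol positive control wells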
S100A4 inh HTS – S100A4-myosin IIA interaction inhibition | AID 652163 | inhibition, % at 10.7 µM | P26447 | S100A4/TAMRA-MyoIIA peptide fluorescence polarization | actives 0.14% (n = 360,000);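 active = mean inhibition of at least 70% across replicates, with every replicate also reaching that level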
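Assay system: human S100A4 monomer with TAMRA-labelled myosin IIA peptide / Buffer or medium: Calcium-containing HEPES buffer, pH 7.2 / Reagent: TAMRA-labelled myosin IIA heavy-chain peptide probe, 5 nM / Compound: one dose per compound / Timing: polarization read 5 min after assay mix addition, stable 5–60 min / Benchmarks: neutral control DMSO, positive control TFP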
Yeast UUG start – alters start codon recognition fidelity in yeast | S. cerevisiae UUG-firefly luciferase reporter, luminescence/redox ratio | activity score, % at 18.7 µM | 350,000 compounds, 0.13% hits | AID 602363;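 active = replicate mean at a twofold rise or more, about +100% in these data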;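 note: firefly luciferase made from a UUG start codon reports start codon fidelity; reporter light over untreated wells divided by growth signal over untreated wells; some hits fall short of that in this replicate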
Starred values were filed as active, the others as inactive; . = no result given.

nr	canonical_smiles	ARNT-TACC3 inh	E-sel inducer	MLL AF4-AF9 inh
1	CCN1CCN(CCCNC(=O)CCC(=O)N2CC(C)Oc3ccc(C)cc32)CC1 (stereo not drawn)	3.1	-0.3	48.9*
2	Cc1nc2ccccn2c1C(=O)NNC(=S)Nc1ccc(Cl)cc1	4.5	.	.
3	Cc1cccc(-n2cnc(C(=O)NNC(=S)Nc3ccc(Cl)cc3)c2)n1	66.7*	.	10.3
4	Cc1noc(C)c1NC(=O)N(C)C[C@H]1Oc2ccc(NC(=O)c3ccncc3)cc2C(=O)N([C@H](C)CO)C[C@H]1C	-6.3	347.6*	-1.2
5	Cc1noc(C)c1NC(=O)N(C)C[C@@H]1Oc2ccc(NC(=O)c3ccncc3)cc2C(=O)N([C@H](C)CO)C[C@@H]1C	-2.9	421.0*	-0.2
6	Cc1noc(C)c1NC(=O)N(C)C[C@H]1OCCCC[C@H](C)Oc2ccc(NC(=O)c3ccncc3)cc2C(=O)N([C@@H](C)CO)C[C@@H]1C	-12.6	-0.2	-2.0
7	Cc1ccc(S(=O)(=O)N[C@@H](Cc2ccccc2)C(=O)N2CCC(C(=O)N[C@@H](CCC(N)=O)C(=O)O)CC2)cc1	-3.9	65.9*	-0.6
8	COc1ccc(-n2sc3ccc(F)cc3c2=O)cc1	0.1	0.1	-23.6
9	COc1ccc(-n2sc3ccccc3c2=O)cc1	.	0.0	-14.0
10	CCCC(=O)Nc1ccc2c(c1)OC[C@H](C)NC[C@H](C)[C@H](OC)CN(C)C2=O	2.0	0.0	-0.2
11	CCCC(=O)Nc1ccc2c(c1)OC[C@@H](C)NC[C@H](C)[C@@H](OC)CN(C)C2=O	-1.6	0.0	-4.6
12	CCCNC(=O)Nc1ccc2c(c1)OC[C@@H](C)NC[C@@H](C)[C@@H](OC)CN(C)C2=O	2.1	0.2	-2.6
13	CCCNC(=O)Nc1ccc2c(c1)C(=O)N(C)C[C@@H](OC)[C@@H](C)CN[C@@H](C)CO2	5.4	0.9	-2.6
14	Cc1noc(C)c1NC(=O)Nc1ccc2c(c1)C(=O)N([C@@H](C)CO)C[C@@H](C)[C@@H](CN(C)C(=O)CCCN(C)C)OCCCC[C@H](C)O2	-3.1	-0.1	-1.8
15	CCOc1ccccc1NC(=O)C(Sc1nnc2ccccn12)c1ccccc1 (stereo not drawn)	-5.4	5.2	-1.9

nr	ERAP1 HTS inh	S100A4 inh HTS	Yeast UUG start
1	1.5	-1.2	-7.1
2	.	.	-32.4
3	1.6	-3.1	.
4	0.3	-1.8	-23.2
5	-2.0	10.6	-26.3
6	0.0	-23.4	1.6
7	-2.5	0.8	-8.5
8	6.3	2.5	-33.4
9	75.4*	-9.2	-31.8
10	.	100.9*	.
11	.	6.4	.
12	-1.9	10.1	7.3
13	-4.3	111.0*	.
14	0.7	2.3	18.2
15	-1.6	2.9	.

(more compounds)
nr	canonical_smiles	ARNT-TACC3 inh	E-sel inducer	MLL AF4-AF9 inh
16	O=C(Nc1ccc(F)cc1)C(Sc1nnc2ccccn12)c1ccccc1 (stereo not drawn)	-21.6	.	49.5*
17	C[C@@H]1CN([C@H](C)CO)C(=O)c2cc(NC(=O)Cc3cn(C)c4ccccc34)ccc2O[C@@H]1CN(C)C(=O)Nc1cccc2ccccc12	-6.3	.	1.4
18	C=CCn1c(C)csc1=Nc1ccc(C(C)=O)cc1	1.5	.	4.2
19	C=CCn1c(C)csc1=Nc1ccccc1C	11.2	-0.4	27.1*
20	CN(C)CCCn1c(=O)n(C2CCCCC2)c(=O)c2c3c(sc21)CCCCC3	2.1	.	27.8*
21	CCNC(=O)C[C@@H]1CC[C@@H]2[C@H](COC[C@@H](O)CN2C(=O)C2CCCC2)O1	7.7	0.4	-2.7
22	CCNC(=O)[C@@H]1[C@@H](CO)[C@@H]2Cn3c(ccc(-c4ccccc4)c3=O)[C@@H]2N1Cc1ccccn1	43.5*	0.0	-0.3
23	COC(=O)[C@H]1[C@H](CO)[C@H]2Cn3c(ccc(-c4cccc(F)c4)c3=O)[C@H]2N1C(=O)CC1CC1	-0.4	-0.5	-0.4
24	COC(=O)[C@@H]1[C@@H](CO)[C@@H]2Cn3c(ccc(-c4ccccc4)c3=O)[C@@H]2N1C(=O)CC1CC1	6.0	-0.7	1.6
25	CO[C@H]1CN(C)C(=O)c2cc(NS(C)(=O)=O)ccc2OC[C@H](C)N(CC2CC2)C[C@H]1C	-1.2	-0.1	-0.6
26	Cc1noc(C)c1NC(=O)Nc1ccc2c(c1)C(=O)N([C@@H](C)CO)C[C@@H](C)[C@H](CN(C)Cc1ccncc1)OCCCC[C@H](C)O2	-4.5	.	-2.8
27	C[C@H](CO)N1C[C@H](C)[C@@H](CN(C)Cc2ccc(C(=O)Nc3ccccc3N)cc2)Oc2ccc(NC(=O)Cc3ccccc3)cc2CC1=O	.	-3.4	-3.2
28	C[C@@H]1CCCCO[C@@H](CN(C)Cc2ccc(Cl)c(Cl)c2)[C@H](C)CN([C@H](C)CO)C(=O)c2cc(N(C)C)ccc2O1	22.4	-0.1	60.7*
29	C[C@@H]1CCCCO[C@@H](CN(C)Cc2ccc(Cl)c(Cl)c2)[C@H](C)CN([C@@H](C)CO)C(=O)c2cc(N(C)C)ccc2O1	.	-0.3	40.2*
30	C[C@@H]1CCCCO[C@H](CN(C)Cc2ccc(Cl)c(Cl)c2)[C@@H](C)CN([C@@H](C)CO)C(=O)c2cc(N(C)C)ccc2O1	24.6	0.1	60.8*

nr	ERAP1 HTS inh	S100A4 inh HTS	Yeast UUG start
16	-1.7	-0.4	.
17	4.6	5.2	-0.5
18	9.7	-2.4	.
19	0.5	-0.2	-13.0
20	-0.1	1.7	-14.3
21	1.3	-22.9	-9.6
22	-0.4	13.8	.
23	-0.1	-9.5	.
24	8.3	75.5*	.
25	-3.0	-4.0	-22.8
26	-2.0	9.3	-5.8
27	-0.4	-7.2	.
28	0.5	11.0	.
29	-3.0	0.4	.
30	3.9	28.9	.

The closing 4 entries of the section before open the next one.
nr	canonical_smiles	ARNT-TACC3 inh	E-sel inducer	MLL AF4-AF9 inh
27	C[C@H](CO)N1C[C@H](C)[C@@H](CN(C)Cc2ccc(C(=O)Nc3ccccc3N)cc2)Oc2ccc(NC(=O)Cc3ccccc3)cc2CC1=O	.	-3.4	-3.2
28	C[C@@H]1CCCCO[C@@H](CN(C)Cc2ccc(Cl)c(Cl)c2)[C@H](C)CN([C@H](C)CO)C(=O)c2cc(N(C)C)ccc2O1	22.4	-0.1	60.7*
29	C[C@@H]1CCCCO[C@@H](CN(C)Cc2ccc(Cl)c(Cl)c2)[C@H](C)CN([C@@H](C)CO)C(=O)c2cc(N(C)C)ccc2O1	.	-0.3	40.2*
30	C[C@@H]1CCCCO[C@H](CN(C)Cc2ccc(Cl)c(Cl)c2)[C@@H](C)CN([C@@H](C)CO)C(=O)c2cc(N(C)C)ccc2O1	24.6	0.1	60.8*
31	C[C@@H]1CCCCO[C@@H](CN(C)Cc2ccc3c(c2)OCO3)[C@@H](C)CN([C@H](C)CO)C(=O)c2cc(N(C)C)ccc2O1	-3.8	0.0	15.4
32	C[C@@H]1CCCCO[C@H](CN(C)Cc2ccc3c(c2)OCO3)[C@H](C)CN([C@H](C)CO)C(=O)c2cc(N(C)C)ccc2O1	6.1	-0.2	5.6
33	CC(=O)NCc1ccc(C(=O)CCl)cc1	-12.8	0.4	-1.1
34	CC(=O)Nc1ccc(C(=O)CCl)cc1	.	.	.
35	C[C@@H]1CN([C@H](C)CO)C(=O)Cc2cc(NS(=O)(=O)c3ccc(Cl)cc3)ccc2O[C@H]1CN(C)C(=O)Nc1ccccc1	-6.6	0.4	-2.2
36	CCOC(=O)c1cccc(NC(=O)Nc2ccc3c(c2)C(=O)OC3)c1	.	61.1*	1.5
37	CCOC(=O)c1cccc(NC(=O)Nc2ccc(OCC)cc2)c1	-3.5	.	-1.2
38	C#CCOCCOCCOCCNc1nc(N2CCOCC2)nc(N2CCN(C(=O)[C@H](CCCCN)n3cc(CCC(=O)O)nn3)CC2)n1	2.4	0.9	-0.5
39	C#CCOCCOCCOCCNc1nc(N2CCN(C(=O)[C@H](CCCCN)n3cc(CN)nn3)CC2)nc(N2CCN(C(=O)[C@H](CCCCN)n3cc(CN)nn3)CC2)n1	14.1	0.5	56.7*

nr	ERAP1 HTS inh	S100A4 inh HTS	Yeast UUG start
27	-0.4	-7.2	.
28	0.5	11.0	.
29	-3.0	0.4	.
30	3.9	28.9	.
31	5.8	-2.0	9.7
32	1.4	-14.5	3.2
33	3.9	-25.5	-7.1
34	2.2	94.2*	-26.9
35	1.6	-31.0	4.8
36	.	-5.0	-8.6
37	1.2	-4.4	.
38	-8.0	-1.6	25.5
39	-6.3	0.0	59.0

Assay outcomes from PubChem BioAssay.
